Results reported in US20240124563A1.

What was measured:
[1] = target: monkey MSLN full-length protein on HEK293T cells (monkey); test: FACS, HEK293T-monkey-MSLN cells, antibody […]
[2] = target: monkey MSLN full-length protein on HEK293T cells (monkey); test: FACS, HEK293T-monkey-MSLN cells, antibody 4 nM
[3] = target: monkey MSLN full-length protein on HEK293T cells (monkey); test: FACS, HEK293T-monkey-MSLN cells, antibody 20 nM
[4] = target: monkey MSLN full-length protein on HEK293T cells (monkey); test: FACS, HEK293T-monkey-MSLN cells, antibody 0.8 nM
[5] = target: monkey MSLN full-length protein on HEK293T cells (monkey); test: FACS, HEK293T-monkey-MSLN cells, antibody 100 nM
[6] = target: monkey MSLN full-length protein on HEK293T cells (monkey); test: FACS, HEK293T-monkey-MSLN cells, antibody 0.16 nM
[7] = target: monkey MSLN full-length protein on HEK293T cells (monkey); test: FACS, HEK293T-monkey-MSLN cells, antibody 0.032 nM
[8] = target: monkey MSLN full-length protein on HEK293T cells (monkey); test: FACS, HEK293T-monkey-MSLN cells, antibody 0.0064 nM

FACS signal (MFI) [1]: 98 | FACS signal (MFI) [2]: 3610 | FACS signal (MFI) [3]: 3650 | FACS signal (MFI) [4]: 1680 | FACS signal (MFI) [5]: 3720 | FACS signal (MFI) [6]: 503 | FACS signal (MFI) [7]: 192 | FACS signal (MFI) [8]: 115
Substance: Tab142 (Amatuximab) (antibody)
